The full list was thinned out, with hits kept by preference.
GIV Gai3 FP: GIV-Galpha-i interaction inhibition. P08753. Galpha-i3/FITC-GIV peptide fluorescence polarization, 90 min; active compounds read low; scaled: aluminum fluoride 0%, vehicle 100%. percent of control (FP), % (test concentration not listed). 210,000 compounds, 0.42% hits. AID 1224905;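 active = replicate mean at 85% of control or lower, very high polarization wells dropped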;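 also: lower values mean more displacement of the GIV peptide from Galpha-i3; wells of about 15 µL received 100 nL stock; the first replicate is given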
GIV Gai FP conf: confirmation of inhibitors of GIV binding to rat Galpha-i3. shares compounds with GIV Gai3 FP. FITC-GIV peptide binding to Galphai3, fluorescence polarization; hits give low values. fluorescence polarization, mP at 100 µM. 38% of 580 active. AID 1259350;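 active = inhibition score of 15 or more, meaning 100 minus mean polarization as percent of control over three replicates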;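 also: lower mP means peptide displaced from Galphai3 so more inhibition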
GIV Gai AS conf: confirmation of inhibitors of GIV binding to human Galpha-i3; shares compounds with GIV Gai3 FP; AlphaScreen Galphai3-GIV binding, purified proteins, 90 min; hits give low values; AID 1259351; 39% of 580 active; AlphaScreen counts at 100 µM;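 active = inhibition score at or above a set limit, where the score is 100 minus the three-replicate mean percent of control signal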
Numbers without * were called inactive.

Start of the listing, in advance (7 entries):
SMILES	GIV Gai3 FP	others
CCOC(=O)[C@@H]1Nc2ccc(C(=O)O)cc2[C@@H]2C=CC[C@H]12	63*	GIV Gai FP conf=50*;GIV Gai AS conf=2184*
CCOC(=O)[C@@H]1Nc2c(ccc(C(=O)O)c2C)[C@@H]2C=CC[C@H]12	106
Cc1nc2c(c(Nc3ccc(C(=O)OCC(C)C)cc3)n1)CCC2	102
O=C1CSC2(C(=O)Nc3ccccc32)N1c1cccc(Br)c1 (stereo unspecified)	109
CCOc1ccc(-c2noc(-c3cnn4c(C)c(Cc5ccccc5C)c(C)nc34)n2)cc1	140
Cc1ccccc1C(=O)Nc1cc(C)c2c(=O)oc3ccccc3c2n1	109
COc1cc(C(=O)Nc2cc(C)c3c(=O)oc4ccccc4c3n2)cc(OC)c1OC	152	GIV Gai FP conf=73;GIV Gai AS conf=37152

Results, previewed entries included:
SMILES	GIV Gai3 FP	others
CCOC(=O)[C@@H]1Nc2ccc(C(=O)O)cc2[C@@H]2C=CC[C@H]12	63*	GIV Gai FP conf=50*;GIV Gai AS conf=2184*
CCOC(=O)[C@@H]1Nc2c(ccc(C(=O)O)c2C)[C@@H]2C=CC[C@H]12	106
Cc1nc2c(c(Nc3ccc(C(=O)OCC(C)C)cc3)n1)CCC2	102
O=C1CSC2(C(=O)Nc3ccccc32)N1c1cccc(Br)c1 (stereo unspecified)	109
CCOc1ccc(-c2noc(-c3cnn4c(C)c(Cc5ccccc5C)c(C)nc34)n2)cc1	140
Cc1ccccc1C(=O)Nc1cc(C)c2c(=O)oc3ccccc3c2n1	109
COc1cc(C(=O)Nc2cc(C)c3c(=O)oc4ccccc4c3n2)cc(OC)c1OC	152	GIV Gai FP conf=73;GIV Gai AS conf=37152
Cc1cc(NC(=O)c2ccc(Br)o2)nc2c1c(=O)oc1ccccc12	120
CCCSCCCNC(=O)c1ccc(Cn2c(=O)c(=O)[nH]c3cccnc32)cc1	107
COc1ccc(-c2ncnn2-c2sc3c(c2C#N)CCCC3)cc1	100
Cc1ccc2oc(=O)c(/C=C(\O)C(C)(C)C)nc2c1	102
Cc1ccc2oc(=O)c(/C=C(\O)c3ccco3)nc2c1	109
COc1ccc(/C(O)=C/c2nc3cc(C)ccc3oc2=O)c(OC)c1	54*	GIV Gai FP conf=147;GIV Gai AS conf=40985
CCOC(=O)c1cnn(C(C)(C)C)c1C1CCN(C(=O)OC(C)(C)C)CC1	110
Cc1cc(Nc2cccc(O)c2)ncn1	109
CC1=CC(=Nc2c(C)n(C)n(-c3ccccc3)c2=O)c2ccccc2C1=O	107
Cc1c(N=C2C(=O)Nc3ccccc32)c(=O)n(-c2ccccc2)n1C	105
Cc1c(N=c2c(=O)c3ccccc3c2=O)c(=O)n(-c2ccccc2)n1C	62*	GIV Gai FP conf=47*;GIV Gai AS conf=26896
CN1CCc2nc(SCC(=O)OCc3ccccc3)c(C#N)c(-c3cccs3)c2C1	117
Cn1c(=O)n(C)c2cc(CNC3CC3)ccc21	101
CCN1C=NS(=O)(=O)c2ccc(C)cc21	102
Cc1ccc2c(c1)c1c3n2CCCNC3CCC1 (stereo unspecified)	102
Cc1ccc2c(c1)c1c(n2C)C(C(N)=O)CCC1 (stereo unspecified)	103
Cc1ccc2c(c1)c1c3n2C=CNC3CCC1 (stereo unspecified)	82*	GIV Gai FP conf=52*;GIV Gai AS conf=25813*
CCS(=O)(=O)Nc1ccc(C(=O)NC(C)C)cc1	102
CCOC(=O)CC(=O)CSc1nc(N)c(C#N)c(-c2cccs2)c1C#N	110
CCOC(=O)CC(=O)CSc1nc(-c2cccs2)cc(-c2cccs2)c1C#N	115
CCOC(=O)CC(=O)CSc1nc2c(c(-c3cccs3)c1C#N)CCC2	96	GIV Gai FP conf=68;GIV Gai AS conf=43008
Cc1ccc(Cl)cc1N1CCN(C(=O)c2cnc3sc(C)c(C)n3c2=O)CC1	107
CCOC(=O)c1ccc(-n2c3c(cc(C(=O)NC(C)=O)c2=O)C(=O)CC(C)(C)C3)cc1	99
CC(C)(C)c1cc2ncnc(NCc3ccc4c(c3)OCO4)c2s1	96
CC1=NN(c2ccc3c(S(=O)(=O)O)cc(S(=O)(=O)O)cc3c2)C(=O)C1	51*	GIV Gai FP conf=43*;GIV Gai AS conf=4060*
CC1=NN(c2ccc(N)cc2)C(=O)C1	95
CC1=NN(c2ccc(Cl)cc2)C(=O)C1	98
COCCNC(=O)c1nnc2ccc(-c3ccccc3)nn12	105
Cc1sc2cc(C(=O)N3CCC4(CC3)OCCO4)[nH]c2c1CN1CCCC1	105
c1ccc(CN2CCCC(c3nc4ccccc4[nH]3)C2)cc1 (stereo unspecified)	104
CCOC(=O)c1ccc2nsnc2c1	101
COC(=O)c1ccc2nc(-c3ccc(C)cc3)c(-c3ccc(C)cc3)nc2c1	102
COC(=O)c1ccc2nsnc2c1	86	GIV Gai FP conf=65;GIV Gai AS conf=37884
O=C(O)c1cc2ccc(F)cc2[nH]1	105
CCn1c2ccccc2c2cc(C3C4CCCC=C4C(C#N)=C(N)C3(C#N)C#N)ccc21 (stereo unspecified)	112
CCN1CC=C2C(C#N)=C(N)C(C#N)(C#N)C(c3cccc(OC)c3OC)C2C1 (stereo unspecified)	124
CCCN1CCC2(CC1)C1CN(CCC)CC=C1C(C#N)=C(N)C2(C#N)C#N (stereo unspecified)	88	GIV Gai FP conf=61;GIV Gai AS conf=50169
CCOC(=O)C1=C(C)N=c2s/c(=C\c3cc(Br)c(O)c(OC)c3)c(=O)n2C1c1ccccc1 (stereo unspecified)	132
Cc1ccccc1NC(=S)Nc1cc(NS(C)(=O)=O)ccc1C	109
CCc1ccc(C2=CC(c3cccc(OC)c3OC)n3c(nc4ccccc43)N2)cc1 (stereo unspecified)	107
COc1ccccc1C1C=C(c2cccnc2)Nc2nc3ccccc3n21 (stereo unspecified)	69*	GIV Gai FP conf=48*;GIV Gai AS conf=30087
COc1cccc(C2=CC(c3ccccc3F)n3c(nc4ccccc43)N2)c1 (stereo unspecified)	101
COc1cc(N)c(/C(N)=N/O)cc1OC	102

(listing goes on)
SMILES	GIV Gai3 FP	others
CCn1c(CN(C)C(=O)NCC(C)C)nc2cc(C(=O)N(C)C)ccc21	97
CCc1ccc(NC(=O)C(NS(=O)(=O)c2cccs2)C(C)C)cc1 (stereo unspecified)	105
CCCOc1ccc(CNC(=O)C(NS(=O)(=O)c2cccs2)C(C)C)cc1 (stereo unspecified)	84*	GIV Gai FP conf=82;GIV Gai AS conf=35946
CC(C)C(NS(=O)(=O)c1cccs1)C(=O)NCc1cccnc1 (stereo unspecified)	105
CCC(=O)c1ccccc1OCCCSc1ncccn1	94
COc1ccc(CNc2ncnc3scc(-c4ccccc4)c23)cc1	106
O=C(NCCn1ccc2ccccc21)c1ccc(F)cc1	60*	GIV Gai FP conf=64;GIV Gai AS conf=37703
O=C(NCCn1ccc2ccccc21)c1ccc(Cl)cc1	107
Cc1ccc(C(=O)NCCn2ccc3ccccc32)cc1	94
COC(=O)c1ccccc1S(=O)(=O)NC(=O)Nc1nc(C)c2c(n1)CCSC2	104
CCOc1ccccc1N(CC(=O)N1CCN(c2ccccc2OC)CC1)S(=O)(=O)c1ccccc1	104
O=C(O)CCN1C(=O)c2ccc(F)cc2C1=O	101
CC(C)/C=C1\CC/C(=C\c2ccncc2)C1=O	94
CC1C/C(=C/c2ccncc2)C(=O)/C(=C/c2ccncc2)C1 (stereo unspecified)	68*	GIV Gai FP conf=44*;GIV Gai AS conf=8734*
O=C1/C(=C/c2ccncc2)COc2ccccc21	101
O=C(CC1CCCCC1)N1CCOCC1	105
Nc1nc(-c2ccccc2)nn1C(=O)C1CC1	102
CC(C)SC1=NSC2=NC(=O)/C(=C\c3ccc(-c4cccc(C(=O)O)c4)o3)C(=N)N21	106
Cc1nn(-c2ccc(Cl)cc2)c2sc(C(=O)NC3CCCc4ccccc43)cc12 (stereo unspecified)	102
Cc1nn(-c2ccccc2)c2sc(C(=O)NCCO)cc12	101
Cc1nn(-c2ccccc2)c2sc(C(=O)NC(=S)NC3CCSC3=O)cc12 (stereo unspecified)	85*	GIV Gai FP conf=64;GIV Gai AS conf=15795*
CCOC(=O)C1=C(CN(C)c2ccccc2)NC(=O)NC1c1ccc(C)cc1 (stereo unspecified)	105

Bioassay records (PubChem)
